From ChEMBL document CHEMBL1146930, “Hydantoin derivatives as non-peptidic inhibitors of Ras farnesyl transferase” (Bioorg Med Chem Lett, 2006)

Target: Protein farnesyltransferase (Homo sapiens, UniProt P49354+P49356)
Test: Inhibition of farnesyl transferase
Type: protein-complex assay

Work on CC1(c2cccc3ccccc23)C(=O)N(CCCn2ccnc2)C(=O)N1Cc1ccc(CN)cc1 (stereo unspecified) yielded an IC50 of 2100 nM.
